# From patent publication US20210220285A1, “ACID RESISTANT CAPSULES” (Capsugel Belgium NV, priority 2016, published 2021)
# Assay: pKa of enteric polymer by titration
substance,measurement,value
polyvinyl acetate phthalate,pKa of the acid groups,about 5.0
